In US20220339156A1, “COMPOSITIONS AND METHODS FOR TREATMENT OF DISORDERS ASSOCIATED WITH CLEC16A DYSFUNCTION OR LOSS” (THE CHILDREN'S HOSPITAL OF PHILADELPHIA, priority 2019, published 2022):

Tested on: control mice
Experiment: Tofacitinib-treated control mice: health and body weight
Type: in vivo
Conditions: throughout the study

`C[C@@H]1CCN(C(=O)CC#N)C[C@@H]1N(C)c1ncnc2[nH]ccc12` [tofacitinib] was tested, and the “health and body weight of treated control mice” value was “stayed healthy and maintained their body weight”.
